Results taken from article PMC3009740 (PLoS ONE, 2010).
Several values for one entry are separate records, joined by “and”; a condition that tells them apart may be missing. Equal values may be shown once.

By UniProt entry, the sequences of proteins in these tests, tags left out.
UniProt P08482, whole entry, stated change not applied: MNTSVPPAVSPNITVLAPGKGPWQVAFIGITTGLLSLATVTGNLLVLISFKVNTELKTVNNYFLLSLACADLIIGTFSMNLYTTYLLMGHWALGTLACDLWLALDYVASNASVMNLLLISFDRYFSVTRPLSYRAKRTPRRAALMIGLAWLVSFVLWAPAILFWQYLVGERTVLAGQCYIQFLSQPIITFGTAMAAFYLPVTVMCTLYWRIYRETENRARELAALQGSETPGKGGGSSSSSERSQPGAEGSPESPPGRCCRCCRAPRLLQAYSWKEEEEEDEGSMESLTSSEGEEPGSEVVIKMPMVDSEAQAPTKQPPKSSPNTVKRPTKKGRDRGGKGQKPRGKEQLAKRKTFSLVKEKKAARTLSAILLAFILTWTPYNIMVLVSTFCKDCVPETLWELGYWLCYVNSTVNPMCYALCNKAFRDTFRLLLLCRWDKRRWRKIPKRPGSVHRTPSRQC

Tests used:
[1] = target: T1, rat M1 wild-type muscarinic acetylcholine receptor (Rattus norvegicus, UniProt P08482); experiment: cell-based; details: KD of [3H]NMS binding after xanomeline pretreatment, washout
[2] = target: T2, rat M1 mutant^123 muscarinic acetylcholine receptor (Rattus norvegicus, UniProt P08482); details: read-out: KD of [3H]NMS binding after xanomeline pretreatment
[3] = target: T1, rat M1 wild-type muscarinic acetylcholine receptor; experiment: cell-based
[4] = target: T1, rat M1 wild-type muscarinic acetylcholine receptor; details: naïve CHO rM1 cells
[5] = target: T2, rat M1 mutant^123 muscarinic acetylcholine receptor; details: mutant^123 cells stimulated with agonist (data not shown)

Compound	Kd ([1]; 3 µM xanomeline 1 h)	Kd ([1]; 3 µM xanomeline 1 h, 23 h wait)	Kd ([1]; 3 µM xanomeline 24 h)	Kd [2]	EC50 [3]	Emax, maximal response [4]	PI response [5]
CCCCCCOc1nsnc1C1=CCCN(C)C1 [xanomeline, 3-[3-hexyloxy-1,2,5-thiadiazo-4-yl]-1,2,5,6-tetrahydro-1-methylpyridine]	400 ± 40 pM	300 ± 40 pM	600 ± 120 pM	420 pM and 260 pM and 490 pM	39800 pM		
C[N+](C)(C)CCOC(N)=O [carbachol]						23000±6100 dpm	did not produce a significant PI response
